Measurements published in patent US8975265B2, “Substituted imidazo[1,2-a]pyrimidines and —pyridines” (Bayer Intellectual Property GmbH, priority 2010, dated 2015).

Protein sequences, listed by entry. Tags and fused reporters are not part of them.
UniProt P31749, whole entry: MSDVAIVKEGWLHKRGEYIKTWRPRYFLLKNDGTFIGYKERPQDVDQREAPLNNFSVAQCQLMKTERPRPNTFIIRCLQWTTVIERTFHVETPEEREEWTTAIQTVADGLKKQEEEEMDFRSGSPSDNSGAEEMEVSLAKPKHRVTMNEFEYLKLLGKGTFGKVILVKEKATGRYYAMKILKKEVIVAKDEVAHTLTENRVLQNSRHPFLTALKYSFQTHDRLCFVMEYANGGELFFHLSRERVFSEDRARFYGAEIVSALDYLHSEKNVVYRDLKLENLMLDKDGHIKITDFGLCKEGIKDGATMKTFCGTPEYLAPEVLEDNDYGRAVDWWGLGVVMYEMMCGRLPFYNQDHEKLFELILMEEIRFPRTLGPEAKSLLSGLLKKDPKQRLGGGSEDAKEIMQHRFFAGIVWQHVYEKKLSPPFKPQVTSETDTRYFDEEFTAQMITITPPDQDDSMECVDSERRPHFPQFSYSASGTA

Tests used:
[1] = molecular target: His-tagged human recombinant kinase full-length Akt1 (Homo sapiens (Human), UniProt P31749); experiment: Akt1 kinase assay (TR-FRET); settings: read-out: Akt1, median IC50; 10 μM ATP
[2] = test system: p-AKT1/2/3-S473 in KPL4 breast tumour cell line; experiment: Cellular p-AKT1/2/3-S473 assay; settings: read-out: pAKT-S743 median IC50, 2 hours treatment
[3] = test system: KPL-4 breast cancer cell line; experiment: Tumor cell proliferation assay (CellTiter-Glo, 72 h), KPL-4; settings: read-out: KPL-4 proliferation IC50, 72h drug exposure

Which IC50 [1] does the source give for `NC1(c2ccc(-c3nc4cc(-n5ccccc5=O)ccn4c3-c3ccccc3)cc2)CCC1` here?
The IC50 was 2.27 µM.

And the IC50 [2]?
The IC50 was 1.65 µM.

And the IC50 [3]?
The IC50 was 10 µM.
